Source: publication PMC12081870, “Competitive binding of actin and SH3 domains at proline-rich regions of Las17/WASP regulates actin polymerisation” (Communications Biology, 2025)

Key:
G-actin [1] = assay: MST, Las17 300-422 to labelled G-actin in presence or absence of Sla1 SH3#1-3 (competition); format: binding, rabbit; conditions: Las17 and Sla1; Sla1 SH3#1-3 4.5 µM; actin 50 nM; Allosteric sigmoidal least squares fit; read-out: apparent Kd, in presence of Sla1
Method: Having established that both actin and Sla1-SH3 domains can bind Las17 at sites in the N-terminal PPR, we next determined whether binding occurs concurrently or whether SH3 domains directly compete for binding. Competition for PPR binding sites could be at least part of the mechanism underlying Sla1 inhibition of actin polymerisation. Relevant proteins and fragments were purified. G-actin binding to Las17 was established using MST, with an actin concentration of 50 nM, and Las17(300–422) concentrations between 0.29 and 9.5 µM. The experiment was then repeated with the addition of Sla1 SH3#1-3 fragment at 4.5 µM. […]
Fig. 7 Factors affecting Las17 interactions. […] C Quantification of liposome co-sedimentation assays. Šídák’s multiple comparisons test P < 0.0001 (n = 6). […]
Microscale Thermophoresis (MST) assays were performed as described previously. […] Each reaction was then loaded into Monolith NT.115 Premium Treated Capillaries (NanoTemper Technologies) and thermophoresis was measured in a Monolith NT.115 Microscale Thermophoresis device (NanoTemper Technologies). Thermophoresis was measured at 20% red LED power and 40% IR laser power at 22°C. Fnorm was calculated from the ratio of fluorescence before heating and after the new equilibrium had been reached. […]

G-actin [2] = assay: Microscale thermophoresis (MST), Las17 fragments to labelled G-actin; format: binding, rabbit; conditions: under similar conditions, comparator ref [15]
Method: Rabbit skeletal muscle actin was gel filtered as described. Concentrations of G-actin produced and used in experiments were in the range 35–65 µM.
Microscale Thermophoresis (MST) assays were performed as described previously. Briefly, rabbit muscle actin in G-buffer minus DTT was […] using Monolith NT^TM Protein Labelling Kit RED-Malemide (NanoTemper Technologies, Munich, Germany). Las17 was prepared as a two-fold serial dilution across 16 tubes and an equal volume of labelled actin was added to each reaction (Final buffer conditions: 25 nM actin, G-buffer + 0.05% Tween). Each reaction was then loaded into Monolith NT.115 Premium Treated Capillaries (NanoTemper Technologies) and thermophoresis was measured in a Monolith NT.115 Microscale Thermophoresis device (NanoTemper Technologies). Thermophoresis was measured at 20% red LED power and 40% IR laser power at 22°C. Fnorm was calculated from the ratio of fluorescence before heating and after the new equilibrium had been reached. Fnorm was then plotted against Las17 concentration to give the Las17 dependent change in thermophoresis. This was described by the ‘Kd fit’ model on the provided software to give Kds for actin binding to Las17 fragments. Each experiment was carried out three separate times with protein from different protein preparations and mean ± SE shown except for Fig. 7a where mean ± SD is shown.

In the case of “Las17: Las17 fragment; residues not stated for TIRF; in b194 Las17 300–422; in b52 full length Las17-GFP in cells”, the Kd (G-actin [1]) is reported as 1390 nM.
“Las17(342–392): minimal Las17 fragment with two arginine-pair actin sites, left on GST tag” was tested, and the “fold weaker G-actin binding than Las17(300–422)” value (G-actin [2]) was “about 10 fold”.
